The numbers were not newly measured in article PMC3438226 (Bioorganic & medicinal chemistry, 2012), which cites them from elsewhere.

The target of the data set is T1, human MTAP (Homo sapiens, UniProt Q13126).
T1 sequence (Q13126 1-283): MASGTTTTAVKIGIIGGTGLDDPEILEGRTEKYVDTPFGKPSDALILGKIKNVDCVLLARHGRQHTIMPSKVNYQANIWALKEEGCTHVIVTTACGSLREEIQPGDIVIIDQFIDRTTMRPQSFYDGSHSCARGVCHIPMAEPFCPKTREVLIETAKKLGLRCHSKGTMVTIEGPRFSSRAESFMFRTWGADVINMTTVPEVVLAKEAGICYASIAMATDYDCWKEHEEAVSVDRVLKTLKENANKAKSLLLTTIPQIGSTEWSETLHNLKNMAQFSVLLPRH
As to conditions: read-out: Ki* human MTAP; Ki* value; cited from earlier work.

Regarding “(1S)-1-(9-deazaadenin-9-yl)-1,4-dideoxy-1,4-imino-5-methylthio-D-ribitol [Compound 3]”, the Ki is 1 ± 0.5 nM.

As usually defined, the Ki is the dissociation constant of the complex between target and ligand, obtained from inhibition or displacement.
